# ChEMBL document CHEMBL1134533, “Design, synthesis, computational prediction, and biological evaluation of ester soft drugs as inhibitors of dihydrofolate reductase from Pneumocystis carinii” (J Med Chem, 2001)
# Target: T1, Dihydrofolate reductase (Pneumocystis carinii, UniProt P16184)
# T1 sequence (P16184 whole entry): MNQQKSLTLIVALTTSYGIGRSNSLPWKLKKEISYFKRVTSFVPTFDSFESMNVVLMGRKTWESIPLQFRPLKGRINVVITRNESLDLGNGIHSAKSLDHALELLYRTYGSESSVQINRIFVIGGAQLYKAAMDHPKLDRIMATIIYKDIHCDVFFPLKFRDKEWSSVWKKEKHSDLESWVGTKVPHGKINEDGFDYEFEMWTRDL
row,Structure (SMILES),IC50 [µM]
1,Cc1c(CO)cnc2nc(N)nc(N)c12,10.5
2,Nc1nc(N)c2cc(COC(=O)Cc3ccccc3)ccc2n1,11.2
3,Nc1nc(N)c2cc(/C=C/C(=O)Oc3ccccc3)ccc2n1,2.1
4,COc1ccc(OC)c(Cc2cnc3nc(N)nc(N)c3c2C)c1 [PIRITREXIM],0.034
